{"source": "paper PMC5988308", "about": "“Rhodanine derivatives as potent anti-HIV and anti-HSV microbicides” (PLoS ONE, 2018)", "system": "TZM-bl cells", "assay": "Cytotoxicity on TZM-bl cells (XTT test)", "assay_type": "cell-based, human", "conditions": "read-out: Citotoxicity (TZM-bl cells) CC50", "data": [{"substance": "maraviroc [reference compound]", "values": [{"measurement": "CC50", "result": "> 20", "unit": "µM"}]}]}
